This is an account of results in patent publication US7498127 (dated 2009).

This assay concerns the target T1, PLZF protein derivative with deletion of a region of Zn6 to Zn7 (UniProt Q05516 1-673).
T1 construct: Deletion construct; also called FLAG-tagged PLZF protein derivative 8); not shown: FLAG synthetic octapeptide tag (Sigma-Aldrich)
T1 sequence (looked up): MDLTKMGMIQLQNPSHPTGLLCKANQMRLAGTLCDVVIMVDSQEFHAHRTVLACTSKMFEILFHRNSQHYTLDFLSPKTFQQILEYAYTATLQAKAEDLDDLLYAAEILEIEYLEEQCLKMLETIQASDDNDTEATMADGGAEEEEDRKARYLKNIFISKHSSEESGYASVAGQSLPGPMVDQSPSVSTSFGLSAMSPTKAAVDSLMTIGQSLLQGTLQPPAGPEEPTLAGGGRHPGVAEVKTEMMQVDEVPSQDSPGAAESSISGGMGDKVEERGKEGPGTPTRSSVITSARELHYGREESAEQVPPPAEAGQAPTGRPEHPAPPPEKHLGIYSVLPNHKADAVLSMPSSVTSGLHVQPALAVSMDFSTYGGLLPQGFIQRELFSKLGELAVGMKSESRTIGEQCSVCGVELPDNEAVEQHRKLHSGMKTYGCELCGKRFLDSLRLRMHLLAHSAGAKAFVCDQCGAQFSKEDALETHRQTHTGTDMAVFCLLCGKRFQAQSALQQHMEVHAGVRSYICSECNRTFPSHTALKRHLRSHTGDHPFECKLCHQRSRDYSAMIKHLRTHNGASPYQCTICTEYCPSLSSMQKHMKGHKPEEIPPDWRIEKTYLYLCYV
Briefly: GST pull-down, anti-FLAG immunoblot. In general terms: In western blotting, separated proteins are transferred to a membrane and probed.

B1: GST binding HB-EGF remaining fragment (other, UniProt P08515 1-218, looked up)
chain: MSPILGYWKIKGLVQPTRLLLEYLEEKYEEHLYERDEGDKWRNKKFELGLEFPNLPYYIDGDVKLTQSMAIIRYIADKHNMLGGCPKERAEISMLEGAVLDIRYGVSRIAYSKDFETLKVDFLSKLPEMLKMFEDRLCHKTYLNGDHVTHPDFMLYDALDVVLYMDPMCLDAFPKLVCFKKRIEAIPQIDKYLKSSKYIAWPLQGWQATFGGGDHPPKRYHRRGGYDVENEEKVKLGMTNSH
notes: also called remaining fragments of HB-EGF
For the molecule B1, the binding result was “no binding”.
